{"sequences": {"note": "By UniProt entry, the sequences of proteins in these tests, tags left out. Where a name states a change or a piece, a line headed by the entry shows the natural chain unless it says otherwise.", "UniProt P08482": "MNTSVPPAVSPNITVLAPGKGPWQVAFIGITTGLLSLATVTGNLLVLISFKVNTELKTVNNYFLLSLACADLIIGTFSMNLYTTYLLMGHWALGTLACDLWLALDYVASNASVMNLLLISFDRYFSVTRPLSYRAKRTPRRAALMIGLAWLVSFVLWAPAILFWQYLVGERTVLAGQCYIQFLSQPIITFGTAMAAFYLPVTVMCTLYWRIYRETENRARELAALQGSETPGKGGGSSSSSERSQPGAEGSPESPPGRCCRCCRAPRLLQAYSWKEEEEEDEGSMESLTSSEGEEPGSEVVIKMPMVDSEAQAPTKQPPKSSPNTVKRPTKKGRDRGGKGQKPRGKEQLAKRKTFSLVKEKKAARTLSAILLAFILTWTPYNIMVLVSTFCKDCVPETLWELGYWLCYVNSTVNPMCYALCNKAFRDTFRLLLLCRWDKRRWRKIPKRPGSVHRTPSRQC"}, "source": "patent US4855290A", "about": "(priority 1985, dated 1989)", "key": {"[1]": {"target": "central muscarinic receptors (M1) (Rattus norvegicus, UniProt P08482)", "format": "binding", "conditions": "[^3 H]-PNZ versus [^3 H]-QNB displacement"}, "[2]": {"tested_on": "central muscarinic receptors (M1 and M2)", "format": "binding, rat", "conditions": "vs AF 30 (cis)"}, "[3]": {"format": "in vivo, Male Sprague-Dawley rats"}, "[4]": {"format": "in vivo, Sprague Dawley rats", "conditions": "LD50 divided by dose used in Radial Arm Maze (ip)"}, "[5]": {"tested_on": "high-affinity choline transport", "experiment": "High-affinity choline transport (from rat brain synoptosomes)", "format": "biochemical"}, "choline acetyltranferase": {"tested_on": "choline acetyltranferase", "experiment": "Choline acetyltranferase activity (from rat brain homogenates)", "format": "biochemical"}}, "note": "“Also recorded” adds a separate entry of the source. Where two headings read alike, the source gives them in different places."}
{"smiles": "C[C@H]1O[C@]2(CS1)CN1CCC2CC1", "note": "(relative stereo) [AF102B]", "values": [{"measurement": "M1 selectivity", "setting": "[1]", "result": "more selective for M1 receptors by one order of magnitude than the rest of the tested compounds; also recorded: selective M1 agonist; also recorded: specific centrally active muscarinic M1-type agonist"}, {"measurement": "relative potency in [^3 H]-QNB displacement", "setting": "[2]", "result": "approximately twice as potent as AF 30 (cis)"}, {"measurement": "ratio of side-effect dose (analgesia, hypothermia) to dose reversing AF64A-induced memory impairments", "setting": "[3]; i.p.", "result": "15-150 times"}, {"measurement": "Therapeutic index", "setting": "[3]; ip", "result": "78-780"}, {"measurement": "ratio of side-effect dose (analgesia, hypothermia) to dose reversing AF64A-induced memory impairments", "setting": "[3]; p.o.", "result": "≥ 40", "unit": "times"}, {"measurement": "Therapeutic index", "setting": "[4]", "result": 15}, {"measurement": "activity on high-affinity choline transport", "setting": "[5]", "result": "lack of any significant activity"}, {"measurement": "activity on choline acetyltranferase", "setting": "choline acetyltranferase", "result": "lack of any significant activity"}]}
